Molecular target: T1, Neprilysin (Homo sapiens, UniProt P08473)
T1 construct: purchased R&D Systems 1182-ZNC-010
Experiment: Proteolytic resistance to neprilysin (% remaining peptide, RP-HPLC AUC)
Assay type: in vitro ADME
Conditions: 37° C., pH 8.3
From the text: Ratio enzyme (units):peptide (μmoles)˜1:33. […] Ratio enzyme (units):peptide (μmoles)˜1:2.5.

By UniProt entry, the sequences of proteins in these tests, tags left out. Where a name states a change or a piece, a line headed by the entry shows the natural chain unless it says otherwise.
UniProt P08473: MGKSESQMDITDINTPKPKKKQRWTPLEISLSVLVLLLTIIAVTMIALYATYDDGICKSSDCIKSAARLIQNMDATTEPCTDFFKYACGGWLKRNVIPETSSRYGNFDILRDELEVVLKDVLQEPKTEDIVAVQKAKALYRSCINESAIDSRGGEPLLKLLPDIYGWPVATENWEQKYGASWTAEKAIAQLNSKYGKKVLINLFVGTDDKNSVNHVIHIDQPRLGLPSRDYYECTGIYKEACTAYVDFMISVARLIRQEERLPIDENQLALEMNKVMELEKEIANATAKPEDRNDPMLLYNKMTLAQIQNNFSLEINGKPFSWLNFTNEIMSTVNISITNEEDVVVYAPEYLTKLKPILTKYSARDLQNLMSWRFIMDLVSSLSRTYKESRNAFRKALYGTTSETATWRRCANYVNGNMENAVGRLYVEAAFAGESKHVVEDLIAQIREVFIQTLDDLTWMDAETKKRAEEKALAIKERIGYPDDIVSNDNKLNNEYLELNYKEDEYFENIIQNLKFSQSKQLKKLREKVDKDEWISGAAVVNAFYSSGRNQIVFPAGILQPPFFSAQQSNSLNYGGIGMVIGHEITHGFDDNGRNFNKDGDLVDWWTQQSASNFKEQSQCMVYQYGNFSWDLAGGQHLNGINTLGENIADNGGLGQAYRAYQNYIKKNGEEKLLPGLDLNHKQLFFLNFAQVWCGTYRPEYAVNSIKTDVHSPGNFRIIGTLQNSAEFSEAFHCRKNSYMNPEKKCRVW

Molecule	remaining at 2 h (recombinant neprilysin, t = 2 hr) [%]	Percentage remaining peptide (AUC at specified time-point by RP-HPLC) upon incubation with neprilysin, t = 0 (t = 0) [%]
CCCCCCCCCCCC(=O)N[C@@H](CCC(=O)NCCOCCOCC(=O)NCCOCCOCC(=O)NCCCC[C@H](NC(=O)[C@H](C)NC(=O)[C@@H](NC(=O)[C@H](Cc1ccccc1)NC(=O)[C@H](CCC(=O)O)NC(=O)[C@](C)(CCCCN)NC(=O)[C@H](C)NC(=O)[C@H](C)NC(=O)[C@H](CCC(=O)O)NC(=O)CNC(=O)[C@H](CCC(=O)O)NC(=O)[C@H](CCCCNC(=O)COCCOCCNC(=O)COCCOCCNC(=O)CC[C@H](NC(=O)CCCCCCCCCCC)C(=O)O)NC(=O)[C@H](Cc1ccc(O)cc1)NC(=O)[C@H](CO)NC(=O)[C@](C)(CO)NC(=O)[C@@H](NC(=O)[C@H](CC(=O)O)NC(=O)[C@H](CO)NC(=O)[C@@H](NC(=O)[C@](C)(Cc1ccccc1)NC(=O)[C@H](CO)NC(=O)CNC(=O)[C@H](CCC(=O)O)NC(=O)C(C)(C)NC(=O)[C@@H](N)Cc1c[nH]cn1)[C@@H](C)O)C(C)C)[C@@H](C)CC)C(=O)N[C@H](C(=O)N[C@H](C(=O)N[C@@H](CCC(=O)O)C(=O)NCC(=O)NCC(N)=O)C(C)C)C(C)C)C(=O)O [compound 269]	93.8	–
H-Aib^2-EGTFTSDVSSYLEGQAAK(ε-(PEG)2-(PEG)2-γE-stearate)EFIAWLVRGRG-acid [Semaglutide, reference compound]	–	100
